For data set [1] the following is noted: 5 mg in 2 ml water.
For data set [2] the following is noted: 5 mg in 2 ml water containing 5 mg benzethenium chloride.

Like-named read-outs stand apart in the source and are kept apart here.

As for trigonelline ester of vanillin, the “vanillin smell (release by hydrolysis)” value is reported as “strong vanillin smell was detected” in data set [1] (after 8 hours under ambient condition), “No vanillin smell was detected” in data set [1] (right after suspending by vortexing), “strong vanillin smell was detected” in data set [2] (after 1 hour under ambient condition) and “No vanillin smell was immediately detected” in data set [2] (immediately).
